Our source for the IC50 and Kd values is patent publication US10201546B2, “Quinolinyl modulators of RORγt” (Janssen Pharmaceutica NV, priority 2013, dated 2019).

The chains behind the UniProt entries cited, without tags or fusion partners. A line that says so, or that is headed by a name, gives the form on record, which may keep a tag or linker. Residues count along the entry.
UniProt P51449, 258-518: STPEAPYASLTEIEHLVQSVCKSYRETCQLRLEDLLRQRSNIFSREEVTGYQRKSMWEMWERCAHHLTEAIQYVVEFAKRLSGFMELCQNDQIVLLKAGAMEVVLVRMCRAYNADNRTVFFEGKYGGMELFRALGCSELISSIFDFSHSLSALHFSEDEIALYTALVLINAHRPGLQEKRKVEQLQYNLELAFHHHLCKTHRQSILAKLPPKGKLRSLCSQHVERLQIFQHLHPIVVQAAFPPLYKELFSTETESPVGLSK
UniProt P51449, other isoform, or with tags, fused parts or gaps: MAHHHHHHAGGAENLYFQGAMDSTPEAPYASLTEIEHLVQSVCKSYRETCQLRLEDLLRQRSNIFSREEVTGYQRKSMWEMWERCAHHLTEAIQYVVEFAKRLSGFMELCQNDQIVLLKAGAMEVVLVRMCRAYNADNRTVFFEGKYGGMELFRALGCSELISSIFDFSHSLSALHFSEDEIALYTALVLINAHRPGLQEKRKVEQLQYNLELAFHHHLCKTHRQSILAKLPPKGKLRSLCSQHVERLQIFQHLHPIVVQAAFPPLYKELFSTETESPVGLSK

The target in experiment [1] is human RORγt LBD fused to the DNA binding domain of the GAL4 protein (Homo sapiens (Human), UniProt P51449). The experiment is described as follows: RORγt (LBD) reporter assay in HEK293T cells. The class given is cell-based.
The target in experiment [2] is human RORγt ligand binding domain (RORγt LBD) (Homo sapiens (Human), UniProt P51449). In words: RORγt ThermoFluor assay (thermal shift, binding affinity Kd).
The mark [3] stands for this setting: HEK293T cells, read-out: RORγt (LBD) Reporter Assay, IC50.
Setting [4] is: read-out: ThermoFluor Assay, Kd.

In general, IC50 refers to the point on the concentration scale where inhibition reaches its midpoint. For orientation: Kd means a measure of binding affinity in units of concentration.

Read-outs that look alike come from different tables or passages of the source. Where only a bound is given, the exact number is not on record here.

`COc1nc2ccc(C(O)(c3cncn3C)C3CCN(C(C)=O)CC3)cc2c(Cl)c1CC1CCOCC1` (single isomer, unassigned) [Example 5c, 1-(4-((4-Chloro-2-methoxy-3-((tetrahydro-2H-pyran-4-yl)methyl)quinolin-6-yl)(hydroxy)(1-methyl-1H-imidazol-5-yl)methyl)piperidin-1-yl)ethanone]: the IC50 in experiment [1] (setting [3]) was over 6000 nM.
Consider `COc1nc2ccc(C(O)(c3ccc(C)nc3C)c3cnnn3C)cc2c(Cl)c1C` (single isomer, unassigned) [Example 12c, (4-Chloro-2-methoxy-3-methylquinolin-6-yl)(2,6-dimethylpyridin-3-yl)(1-methyl-1H-1,2,3-triazol-5-yl)methanol], for which the dissociation constant (Kd) in experiment [2] (ThermoFluor Assay, Kd) was determined as 63 nM. Also, the IC50 in experiment [1] is 330 nM.
`COc1nc2ccc(C(O)(c3ccc(C)nc3C)c3cnnn3C)cc2c(Cl)c1C1CCCC1` (centres unmarked) [Example 136a, (4-Chloro-3-cyclopentyl-2-methoxyquinolin-6-yl)(2,6-dimethylpyridin-3-yl)(1-methyl-1H-1,2,3-triazol-5-yl)methanol]: in experiment [2] (read-out: ThermoFluor ® Assay, Kd), the Kd is 0.95 nM. In experiment [1] (setting [3]), the IC50 worked out at 60 nM.
On to `COc1nc2ccc(C(O)(c3ccc(C)nc3C)c3cnnn3C)cc2c(Cl)c1CN1CCC(C(F)(F)F)CC1` (single isomer, unassigned) [Example 103c, (4-Chloro-2-methoxy-3-((4-(trifluoromethyl)piperidin-1-yl)methyl)quinolin-6-yl)(2,6-dimethylpyridin-3-yl)(1-methyl-1H-1,2,3-triazol-5-yl)methanol], for which the equilibrium dissociation constant (Kd) in experiment [2] (ThermoFluor Assay, Kd) was 1.5 nM. Besides, the IC50 in experiment [1] came to 22 nM.
In the case of `COc1nc2ccc(C(O)(c3ccc(C)nc3C)c3cnnn3C)cc2c(Cl)c1CN1CCC(C(F)(F)F)CC1` (centres unmarked) [Example 103a, (4-Chloro-2-methoxy-3-((4-(trifluoromethyl)piperidin-1-yl)methyl)quinolin-6-yl)(2,6-dimethylpyridin-3-yl)(1-methyl-1H-1,2,3-triazol-5-yl)methanol], in experiment [2] (setting [4]), the Kd worked out at 1.1 nM.
Take `COc1nc2ccc(C(O)(c3cnc(C)n3C)C3CN(C(C)=O)C3)cc2c(Cl)c1CN1CCC(C(F)(F)F)CC1` (single isomer, unassigned) [Example 124c, 1-(3-((4-Chloro-2-methoxy-3-((4-(trifluoromethyl)piperidin-1-yl)methyl)quinolin-6-yl)(1,2-dimethyl-1H-imidazol-5-yl)(hydroxy)methyl)azetidin-1-yl)ethanone]: the Kd in experiment [2] (ThermoFluor ® Assay, Kd) is 4.8 nM.
Take `COc1nc2ccc(C(O)(c3ccc(C)nc3C)c3cnnn3C)cc2c(Cl)c1CC1CC1` (centres unmarked) [Example 14a, (4-Chloro-3-(cyclopropylmethyl)-2-methoxyquinolin-6-yl)(2,6-dimethylpyridin-3-yl)(1-methyl-1H-1,2,3-triazol-5-yl)methanol]: in experiment [2] (setting [4]), the equilibrium dissociation constant (Kd) stood at 2.5 nM. Moreover, the IC50 in experiment [1] (setting [3]) worked out at 23 nM.
`COc1nc2ccc(C(O)(c3ccc(C)nc3C)c3cnnn3C)cc2c(Cl)c1OC1CCN(C)CC1` (single isomer, unassigned) [Example 65b, {4-Chloro-2-methoxy-3-[(1-methylpiperidin-4-yl)oxy]quinolin-6-yl}(2,6-dimethylpyridin-3-yl)(1-methyl-1H-1,2,3-triazol-5-yl)methanol]: in experiment [1] (setting [3]), the IC50 is over 6000 nM.
Still for that read-out and setting: next, `COc1nc2ccc(C(O)(c3ccc(C)nc3C)c3cnnn3C)cc2c(Cl)c1OCC1CC1(F)F` (single isomer, unassigned) [Example 72b, {4-Chloro-3-[(2,2-difluorocyclopropyl)methoxy]-2-methoxyquinolin-6-yl}(2,6-dimethylpyridin-3-yl)(1-methyl-1H-1,2,3-triazol-5-yl)methanol]: about 6000 nM.
Turning to `COc1nc2ccc(C(O)(c3cnnn3C)C3CN(C(C)=O)C3)cc2c(Cl)c1CN1CCC(C(F)(F)F)CC1` (single isomer, unassigned) [Example 123c, 1-(3-((4-Chloro-2-methoxy-3-((4-(trifluoromethyl)piperidin-1-yl)methyl)quinolin-6-yl)(hydroxy)(1-methyl-1H-1,2,3-triazol-5-yl)methyl)azetidin-1-yl)ethanone], the Kd in experiment [2] (ThermoFluor ® Assay, Kd) was found to be 19 nM.
As for `COc1nc2ccc(C(O)(c3ccc(C)nc3C)c3cnnn3C)cc2c(Cl)c1OC1CCOCC1` (centres unmarked) [Example 69a, [4-Chloro-2-methoxy-3-(tetrahydro-2H-pyran-4-yloxy)quinolin-6-yl](2,6-dimethylpyridin-3-yl)(1-methyl-1H-1,2,3-triazol-5-yl)methanol], the Kd in experiment [2] (setting [4]) is 58 nM. In addition, in experiment [1] (setting [3]), the half-maximal inhibitory concentration (IC50) is about 6000 nM.
Regarding `COc1nc2ccc(C(O)(c3ccc(C)nc3C)c3cnnn3C)cc2c(Cl)c1CN1CCC(n2cccn2)CC1` (single isomer, unassigned) [Example 105c, (3-((4-(1H-Pyrazol-1-yl)piperidin-1-yl)methyl)-4-chloro-2-methoxyquinolin-6-yl)(2,6-dimethylpyridin-3-yl)(1-methyl-1H-1,2,3-triazol-5-yl)methanol], the Kd in experiment [2] (ThermoFluor Assay, Kd) stood at 47 nM. In addition, the IC50 in experiment [1] worked out at 120 nM.
Consider `COc1nc2ccc(C(O)(c3ccc(C)nc3C)c3cnnn3C)cc2c(Cl)c1CN1CC(C(F)(F)F)C1` (single isomer, unassigned) [Example 114c, (4-Chloro-2-methoxy-3-((3-(trifluoromethyl)azetidin-1-yl)methyl)quinolin-6-yl)(2,6-dimethylpyridin-3-yl)(1-methyl-1H-1,2,3-triazol-5-yl)methanol], for which the Kd in experiment [2] (ThermoFluor Assay, Kd) was 3.9 nM. The compound also showed an IC50 in experiment [1] of 41 nM.
In the case of `COc1nc2ccc(C(O)(c3ccc(C)nc3C)c3cnnn3C)cc2c(Cl)c1CC(C)C` (centres unmarked) [Example 133a, (4-Chloro-3-isobutyl-2-methoxyquinolin-6-yl)(2,6-dimethylpyridin-3-yl)(1-methyl-1H-1,2,3-triazol-5-yl)methanol], the IC50 in experiment [1] (setting [3]) came to 11 nM.
In the case of `COc1nc2ccc(C(O)(c3cnnn3C)C3CN(C(C)=O)C3)cc2c(Cl)c1CN1CCC(C(F)(F)F)CC1` (single isomer, unassigned) [Example 123b, 1-(3-((4-Chloro-2-methoxy-3-((4-(trifluoromethyl)piperidin-1-yl)methyl)quinolin-6-yl)(hydroxy)(1-methyl-1H-1,2,3-triazol-5-yl)methyl)azetidin-1-yl)ethanone], in experiment [2] (ThermoFluor ® Assay, Kd), the Kd is 18 nM.
`COc1nc2ccc(C(O)(c3ccc(C)nc3C)c3cnnn3C)cc2c(Cl)c1CC(F)(F)F` (single isomer, unassigned) [Example 143c, [4-Chloro-2-methoxy-3-(2,2,2-trifluoroethyl)quinolin-6-yl](2,6-dimethylpyridin-3-yl)(1-methyl-1H-1,2,3-triazol-5-yl)methanol]: the Kd in experiment [2] (ThermoFluor ® Assay, Kd) stood at 2.9 nM. This compound also registered an IC50 in experiment [1] of 45 nM.
Take `COc1nc2ccc(C(O)(c3ccc(C)nc3C)c3cnnn3C)cc2c(Cl)c1CN1CCC(n2cccn2)CC1` (single isomer, unassigned) [Example 105b, (3-((4-(1H-Pyrazol-1-yl)piperidin-1-yl)methyl)-4-chloro-2-methoxyquinolin-6-yl)(2,6-dimethylpyridin-3-yl)(1-methyl-1H-1,2,3-triazol-5-yl)methanol]: the IC50 in experiment [1] (setting [3]) was over 6000 nM.
Still for that read-out and setting: next, `COc1nc2ccc(C(O)(c3ccc(C)nc3C)c3cnnn3C)cc2c(Cl)c1OC1CCOCC1` (single isomer, unassigned) [Example 69b, [4-Chloro-2-methoxy-3-(tetrahydro-2H-pyran-4-yloxy)quinolin-6-yl](2,6-dimethylpyridin-3-yl)(1-methyl-1H-1,2,3-triazol-5-yl)methanol]: over 6000 nM.
On the same count and under the same terms, the figure for `COc1nc2ccc(C(O)(c3cncn3C)C3CCN(C(C)=O)CC3)cc2c(Cl)c1CC1CCOCC1` (single isomer, unassigned) [Example 5b, 1-(4-((4-Chloro-2-methoxy-3-((tetrahydro-2H-pyran-4-yl)methyl)quinolin-6-yl)(hydroxy)(1-methyl-1H-imidazol-5-yl)methyl)piperidin-1-yl)ethanone] is over 6000 nM.
For the compound `COc1nc2ccc(C(O)(c3ccc(C(F)(F)F)nc3)C3CN(C(C)=O)C3)cc2c(Cl)c1CN1CCC(C(F)(F)F)CC1` (single isomer, unassigned) [Example 131c, 1-(3-((4-Chloro-2-methoxy-3-((4-(trifluoromethyl)piperidin-1-yl)methyl)quinolin-6-yl)(hydroxy)(6-(trifluoromethyl)pyridin-3-yl)methyl)azetidin-1-yl)ethanone], the dissociation constant Kd in experiment [2] (ThermoFluor ® Assay, Kd) came to 3.3 nM.
As for `COc1nc2ccc(C(O)(c3cnnn3C)c3cnc(C)n3C)cc2c(Cl)c1CN1CCC(C(F)(F)F)CC1` (single isomer, unassigned) [Example 106b, (4-Chloro-2-methoxy-3-((4-(trifluoromethyl)piperidin-1-yl)methyl)quinolin-6-yl)(1,2-dimethyl-1H-imidazol-5-yl)(1-methyl-1H-1,2,3-triazol-5-yl)methanol], in experiment [2] (ThermoFluor Assay, Kd), the Kd is 2.3 nM.
For `COc1nc2ccc(C(O)(c3ccc(C)nc3C)c3cnnn3C)cc2c(Cl)c1C` (single isomer, unassigned) [Example 12b, (4-Chloro-2-methoxy-3-methylquinolin-6-yl)(2,6-dimethylpyridin-3-yl)(1-methyl-1H-1,2,3-triazol-5-yl)methanol], the IC50 in experiment [1] (setting [3]) was over 6000 nM.
Consider `COc1nc2ccc(C(O)(c3cnc(C)n3C)C3CCOCC3)cc2c(Cl)c1CN1CCC(C(F)(F)F)CC1` (single isomer, unassigned) [Example 130c, (4-Chloro-2-methoxy-3-((4-(trifluoromethyl)piperidin-1-yl)methyl)quinolin-6-yl)(1,2-dimethyl-1H-imidazol-5-yl)(tetrahydro-2H-pyran-4-yl)methanol], for which the Kd in experiment [2] (ThermoFluor ® Assay, Kd) was found to be 0.59 nM.
In the case of `COc1nc2ccc(C(O)(c3ccc(C)nc3C)c3cnnn3C)cc2c(Cl)c1CN1CC(C(F)(F)F)C1` (single isomer, unassigned) [Example 114b, (4-Chloro-2-methoxy-3-((3-(trifluoromethyl)azetidin-1-yl)methyl)quinolin-6-yl)(2,6-dimethylpyridin-3-yl)(1-methyl-1H-1,2,3-triazol-5-yl)methanol], the IC50 in experiment [1] (setting [3]) was about 2000 nM.
